{"source": "patent US12161698B2", "about": "“Synthetic platelets” (CASE WESTERN RESERVE UNIVERSITY, priority 2011, dated 2024)", "test_system": "platelets", "experiment": "Aggregometry of VBP and CBP peptides (platelet activation)"}
{"compound": "NCC(=O)N1CCC[C@H]1C(=O)N1C[C@H](O)C[C@H]1C(=O)NCC(=O)N1CCC[C@H]1C(=O)N1C[C@H](O)C[C@H]1C(=O)NCC(=O)N1CCC[C@H]1C(=O)N1C[C@H](O)C[C@H]1C(=O)NCC(=O)N1CCC[C@H]1C(=O)N1C[C@H](O)C[C@H]1C(=O)NCC(=O)N1CCC[C@H]1C(=O)N1C[C@H](O)C[C@H]1C(=O)NCC(=O)N1CCC[C@H]1C(=O)N1C[C@H](O)C[C@H]1C(=O)NCC(=O)N1CCC[C@H]1C(=O)N1C[C@H](O)C[C@H]1C(N)=O", "values": [{"measurement": "activation of platelets by aggregometry", "result": "inability of both VBP and CBP to activate platelets"}]}
